Measurements as given in patent publication US8906919B2, “Treatment of non-neuronal and non-myocardial cell, tissue and organ damage and associated pain with persistent sodium current blockers” (Ozteo Pty Ltd, priority 2009, dated 2014).
Read-outs that look alike come from different tables or passages of the source.

Key:
kidney tissue [1] = conditions: rat, iv before ischaemia (riluzole 5 mg/kg, lidocaine 1 mg/kg, lamotrigine 20 mg/kg)
Protocol: (§1) Additional studies were performed on kidney tissue in 48 isoflurane-anaesthetised, male Wistar albino rats (300-350 g). […] A further ten minutes was allowed for drug circulation prior to the induction of ischaemia. Tissue ischaemia was produced in all animals by occluding the renal artery to the left kidney. Immediately prior to occlusion, a 1,000 unit bolus of IV heparin was injected to prevent blood clotting and to permit reperfusion. Occlusion was maintained for 3 hours following which, in 6 animals in each group, the occlusion was released and reperfusion of the kidney was allowed. Samples of reperfused tissue were excised 45 minutes following reperfusion. Samples of non-reperfused ischaemic tissue were excised 3 hours post occlusion. Samples of ischaemic tissue and of reperfused tissue were taken from different animals. Samples of non-ischaemic, non-treated tissue were excised from the right kidney of the non-treated group.
In addition, persistent sodium current blockade was assessed for its affect on kidney tissue DNA fragmentation during ischaemia and reperfusion. […] All panels were illuminated by light with wavelength around 520 nm to show DNA fragmentation.

kidney tissue [2] = conditions: rat
Protocol: as §1
Persistent sodium current blockade was evaluated for its effect on kidney tissue glutathione levels during ischaemia and reperfusion.

[3] = system: tibialis anterior skeletal muscles; conditions: pig, 2 mg/kg iv before ischaemia
Protocol: A further ten minutes was allowed for drug circulation prior to the induction of ischaemia. […] Samples of reperfused tissue were excised 45 minutes following reperfusion. Samples of non-reperfused ischaemic tissue were excised 3 hours post occlusion.

For Nc1nc2ccc(OC(F)(F)F)cc2s1 [riluzole, 2-amino-6-trifluoromethoxybenzothiazole], the “damaged nuclei (DNA fragmentation) in renal tubules compared with non-treated tissue” value (kidney tissue [1]; 3 hours of ischaemia and 45 minutes of reperfusion (FIG. 10)) was “relatively few damaged nuclei”, the “damaged nuclei (DNA fragmentation) in renal tubules compared with non-treated tissue” value (kidney tissue [1]; 3 hours of ischaemia and no reperfusion (FIG. 10)) was “considerably fewer damaged nuclei” and the “kidney glutathione levels compared with non-treated, non-ischaemic and non-reperfused group” value (kidney tissue [2]; iv before ischaemia (riluzole 5 mg/kg, lidocaine 1 mg/kg), 3 h ischaemia and 45 min reperfusion (FIG. 9, vs 901)) was “not significantly different”. The “kidney glutathione levels compared with non-treated reperfused group” value (kidney tissue [2]; iv before ischaemia (riluzole 5 mg/kg, lidocaine 1 mg/kg, lamotrigine 20 mg/kg), 3 h ischaemia and 45 min reperfusion (FIG. 9)) was “significantly higher”, the “kidney glutathione levels after ischaemia” value (kidney tissue [2]; iv before ischaemia (riluzole 5 mg/kg, lidocaine 1 mg/kg, lamotrigine 20 mg/kg), 3 h renal artery occlusion, no reperfusion (FIG. 8)) was “not significantly reduced” and the “tissue fibre waviness, H&E staining” value ([3]; 3 h femoral artery occlusion, no reperfusion (group 3)) was “no tissue fibre waviness”. For the same compound, the “marbling of tissue (oedema), H&E staining” value ([3]; 3 h femoral artery occlusion, no reperfusion (group 3, FIG. 4)) was “slight marbling”, the “level of glutathione compared with non-treated and non-ischaemic tissue” value ([3]; 3 h ischaemia and 45 min reperfusion (FIG. 6, 615 vs 611)) was “comparable” and the “level of glutathione compared with non-treated ischaemic and reperfused tissue” value ([3]; 3 h ischaemia and 45 min reperfusion (FIG. 6, 615 vs 613)) was “significantly greater”. For the same compound, the “level of glutathione compared with non-treated and non-ischaemic tissue” value ([3]; 3 h ischaemia, no reperfusion (FIG. 6, 614 vs 611)) was “comparable”, the “level of glutathione compared with non-treated ischaemic tissue” value ([3]; 3 h ischaemia, no reperfusion (FIG. 6, 614 vs 612)) was “significantly greater” and the “tissue fibre waviness, H&E staining” value ([3]; 3 h occlusion and 45 min reperfusion (group 4)) was “no tissue fibre waviness”. The “marbling of tissue (oedema), H&E staining” value ([3]; 3 h occlusion and 45 min reperfusion (group 4, FIG. 5), compared with non-treated group 2) was “very little marbling”, the “damaged nuclei (DNA fragmentation)” value ([3]; ischaemia and reperfusion (FIG. 7, panel 706)) was “does not show any damaged nuclei” and the “damaged nuclei (DNA fragmentation)” value ([3]; ischaemia, not reperfused (FIG. 7, panel 704)) was “does not show any damaged nuclei”.
